## Permeability data for macrocyclic peptides

Source: CycPeptMPDB (Li et al. 2023), which took these values from Furukawa et al. 2016, doi:10.1021/acs.jmedchem.6b01246.

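The data file gives no further conditions (lipid, pH, time, direction or concentration), and values from different papers need not be comparable. Other peptides of the study may be missing here. Entries at the database's floor value (log10 P of -10) are not listed.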

PAMPA measures passive passage through an artificial lipid membrane. Permeability is in 10^-6 cm/s, converted from the database's log10 values; higher is more permeable.

compound	PAMPA (10^-6 cm/s)
CCCC[C@@H]1NC(=O)[C@H](CC(C)C)N(C)C(=O)CN(CCCc2ccccc2)C(=O)[C@H](CC(C)C)NC(=O)CN(Cc2cc(CC(C)C)on2)C(=O)[C@H]2CCCN2C1=O	0.11
CCCC[C@@H]1NC(=O)[C@H](CC(C)C)N(C)C(=O)CN(CC2CCCCC2)C(=O)[C@H](C)NC(=O)CN(CCC)C(=O)[C@H]2CCCN2C1=O	12
CCCC[C@@H]1NC(=O)[C@H](CC(C)C)N(C)C(=O)CN(CC2CCCCC2)C(=O)[C@H](Cc2ccc3ccccc3c2)NC(=O)CN(CCCCc2ccccc2)C(=O)[C@H]2CCCN2C1=O	0.0014
CCCC[C@@H]1NC(=O)[C@H](CC(C)C)N(C)C(=O)CN(CCOC)C(=O)[C@H](C)NC(=O)CN(Cc2ccc(Cl)cc2)C(=O)[C@H]2CCCN2C1=O	5.6
CCCC[C@@H]1NC(=O)[C@H](CC(C)C)N(C)C(=O)CN(CCCc2ccccc2)C(=O)[C@H](C)NC(=O)CN(Cc2ccccc2Cn2cccn2)C(=O)[C@H]2CCCN2C1=O	8.3
CCCC[C@@H]1NC(=O)[C@H](CC(C)C)N(C)C(=O)CN(CCOc2ccccc2)C(=O)[C@H](CC(C)C)NC(=O)CN(CC(C)C)C(=O)[C@H]2CCCN2C1=O	1.3
CCCC[C@@H]1NC(=O)[C@H](CC(C)C)N(C)C(=O)CN(CC2CCCCC2)C(=O)[C@H](Cc2ccccc2)NC(=O)CN(CC(C)C)C(=O)[C@H]2CCCN2C1=O	0.15
CCCC[C@@H]1NC(=O)[C@H](CC(C)C)N(C)C(=O)CN(CCCc2cnn(C)c2)C(=O)[C@H](CC(C)C)NC(=O)CN(Cc2ccc3c(c2)OCO3)C(=O)[C@H]2CCCN2C1=O	3.6
CCCC[C@@H]1NC(=O)[C@H](CC(C)C)N(C)C(=O)CN(CC2CCCCC2)C(=O)[C@H](Cc2ccccc2)NC(=O)CN(Cc2ccccc2Cn2cccn2)C(=O)[C@H]2CCCN2C1=O	0.11
CCCC[C@@H]1NC(=O)[C@H](CC(C)C)N(C)C(=O)CN(CCOc2ccccc2)C(=O)[C@H](C)NC(=O)CN(CCN2CCOCC2)C(=O)[C@H]2CCCN2C1=O	0.62
CCCC[C@@H]1NC(=O)[C@H](CC(C)C)N(C)C(=O)CN(CCCN2CCCC2=O)C(=O)[C@H](Cc2ccc3ccccc3c2)NC(=O)CN(Cc2ccccc2Cn2cccn2)C(=O)[C@H]2CCCN2C1=O	0.87
CCCC[C@@H]1NC(=O)[C@H](CC(C)C)N(C)C(=O)CN(CCOC)C(=O)[C@H](C)NC(=O)CN(CCCOC(C)C)C(=O)[C@H]2CCCN2C1=O	0.48
CCCC[C@@H]1NC(=O)[C@H](CC(C)C)N(C)C(=O)CN(CCOC)C(=O)[C@H](Cc2ccc3ccccc3c2)NC(=O)CN(Cc2ccccc2Cn2cccn2)C(=O)[C@H]2CCCN2C1=O	0.68
CCCC[C@@H]1NC(=O)[C@H](CC(C)C)N(C)C(=O)CN(CCCN2CCCC2=O)C(=O)[C@H](Cc2ccccc2)NC(=O)CN(Cc2cc(CC(C)C)on2)C(=O)[C@H]2CCCN2C1=O	1.9
CCCC[C@@H]1NC(=O)[C@H](CC(C)C)N(C)C(=O)CN(CCCN2CCCC2=O)C(=O)[C@H](Cc2ccccc2)NC(=O)CN(CCC)C(=O)[C@H]2CCCN2C1=O	0.58
CCCC[C@@H]1NC(=O)[C@H](CC(C)C)N(C)C(=O)CN(CCCc2ccccc2)C(=O)[C@H](Cc2ccc3ccccc3c2)NC(=O)CN(CC(C)C)C(=O)[C@H]2CCCN2C1=O	0.0011
CCCC[C@@H]1NC(=O)[C@H](CC(C)C)N(C)C(=O)CN(CC2CCCCC2)C(=O)[C@H](Cc2ccccc2)NC(=O)CN(CCC)C(=O)[C@H]2CCCN2C1=O	0.59
CCCC[C@@H]1NC(=O)[C@H](CC(C)C)N(C)C(=O)CN(CCCc2cnn(C)c2)C(=O)[C@H](Cc2ccccc2)NC(=O)CN(CCCOC(C)C)C(=O)[C@H]2CCCN2C1=O	4.7
CCCC[C@@H]1NC(=O)[C@H](CC(C)C)N(C)C(=O)CN(Cc2ccccc2)C(=O)[C@H](Cc2ccccc2)NC(=O)CN(CC(C)C)C(=O)[C@H]2CCCN2C1=O	0.87
CCCC[C@@H]1NC(=O)[C@H](CC(C)C)N(C)C(=O)CN(CCCN2CCCC2=O)C(=O)[C@H](Cc2ccc3ccccc3c2)NC(=O)CN(CCCOC(C)C)C(=O)[C@H]2CCCN2C1=O	1.5
CCCC[C@@H]1NC(=O)[C@H](CC(C)C)N(C)C(=O)CN(Cc2ccccc2)C(=O)[C@H](C)NC(=O)CN(Cc2cc(CC(C)C)on2)C(=O)[C@H]2CCCN2C1=O	7.9
CCCC[C@@H]1NC(=O)[C@H](CC(C)C)N(C)C(=O)CN(CCOc2ccccc2)C(=O)[C@H](C)NC(=O)CN(CCC)C(=O)[C@H]2CCCN2C1=O	6
CCCC[C@@H]1NC(=O)[C@H](CC(C)C)N(C)C(=O)CN(CCOC)C(=O)[C@H](Cc2ccccc2)NC(=O)CN(CCC)C(=O)[C@H]2CCCN2C1=O	7.6
CCCC[C@@H]1NC(=O)[C@H](CC(C)C)N(C)C(=O)CN(CC2CCOCC2)C(=O)[C@H](Cc2ccccc2)NC(=O)CN(Cc2cc(CC(C)C)on2)C(=O)[C@H]2CCCN2C1=O	3.5

Again, the 2 entries with the lowest PAMPA:

| compound | PAMPA (10^-6 cm/s) |
|---|---|
| CCCC[C@@H]1NC(=O)[C@H](CC(C)C)N(C)C(=O)CN(CCCc2ccccc2)C(=O)[C@H](Cc2ccc3ccccc3c2)NC(=O)CN(CC(C)C)C(=O)[C@H]2CCCN2C1=O | 0.0011 |
| CCCC[C@@H]1NC(=O)[C@H](CC(C)C)N(C)C(=O)CN(CC2CCCCC2)C(=O)[C@H](Cc2ccc3ccccc3c2)NC(=O)CN(CCCCc2ccccc2)C(=O)[C@H]2CCCN2C1=O | 0.0014 |